Assay outcomes from PubChem BioAssay.
MC4R antagonist: antagonists of human melanocortin 4 receptor (MC4R); P32245; MC4R-expressing cells, MTII-stimulated cAMP, LANCE TR-FRET; inhibition, % at 6.5 µM; 360,000 tested, 0.48% active;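 active = inhibition above its plate's cutoff, the mean of tested wells on that plate plus 3 SD, cut at about 29% in these data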;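 note: 0% = Melanotan II alone and 100% = Melanotan II plus saturating MCL0020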
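system = U2OS cells with stable human MC4R expression | also added = Melanotan II challenge after compound preincubation | dosing = one concentration, 6.5 µM nominal | incubation = compound 30 min, challenge 1 h, detection 1 h | measured by = TR-FRET with Eu-cAMP and labeled anti-cAMP, 671 nm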
MC4R ag barr: agonists of human melanocortin 4 receptor (MC4R) beta-arrestin | U2OS MC4R beta-arrestin complementation, luminescence; percent of melanotan II response, DMSO zero | 360,000 tested, 0.98% active | activation, % at 8.9 µM | P32245 | AID 540308;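 active = activation above a per-plate cutoff, the mean activation of sample wells on that plate plus 3 SD, cut at about 8% in these data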
NALP1 yeast inh: blocks the NALP1 inflammasome reconstituted in yeast | AID 2071 | 280,000 tested, 0.61% active | inhibition, % at 10 µM | S. cerevisiae NALP1/ASC/caspase-1 growth, X-gal OD620, 72 h; in the data active = inhibition mostly above about 24%, no sharp cut-off; inactive = mostly below about 32%
ALR H2O2 inh: human ALR oxidase inhibition via reduced H2O2. P55789. purified ALR, DTT oxidation, H2O2 HRP-luminol luminescence. inhibition, % (no concentration beside the values). 290,000 tested, 3.8% active. AID 485317;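 active = mean and each replicate at 75% or more; inconclusive = only one of the two met; inactive = neither met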;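 also: stock transfer was 7.5 nL into about 7.5 µL; 0% = neutral wells and 100% = wells with inactivated enzyme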
Yeast UUG start: yeast start codon fidelity modulation; activity score, % at 18.7 µM; actives 0.13% (n = 350,000); S. cerevisiae UUG-firefly luciferase reporter, luminescence/redox ratio; AID 602363;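 active means replicate mean at a twofold rise or more, about +100% in these data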;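 further: firefly luciferase made from a UUG start codon reports start codon fidelity; reporter light over untreated wells divided by growth signal over untreated wells; some hits fall short of that in this replicate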
HDAC3 inhib: blocks human histone deacetylase 3. recombinant HDAC3, fluorogenic peptide/trypsin coupled, fluorescence. 320,000 tested, 0.15% active. inhibition, % at 8.3 µM; in the data active = inhibition above about 26%, passing the limit was not always enough; inconclusive = no clear call, values can overlap the other calls
* marks the source's active call; other numbers are inactive results; ? = inconclusive; . = no result given. This is a sample that favours compounds with a hit; in the whole collection about 4.2% have one here.

Short forms – A = MC4R antagonist; B = MC4R ag barr; C = NALP1 yeast inh; D = ALR H2O2 inh; E = Yeast UUG start; F = HDAC3 inhib
[1] CCOC(=O)c1nnn2c1nc(SCC(C)=O)c1ccccc12
  A = -5 | B = -1 | C = 21 | D = 88* | E = 6 | F = 3
[2] Clc1ccc(/C=N/Nc2ncnc3nc[nH]c23)cc1
  A = 1 | B = -2 | C = . | D = 93* | E = -4 | F = 6
[3] Cc1ccc(/C=N/Nc2ncnc3nc[nH]c23)cc1
  A = -2 | B = 1 | C = . | D = 65 | E = . | F = ?
[4] C[C@@H]1CN([C@H](C)CO)C(=O)c2cc(NC(=O)CCC(F)(F)F)ccc2O[C@@H](C)CCCCO[C@@H]1CN(C)C(=O)c1ccccc1
  A = . | B = . | C = . | D = . | E = 17 | F = .
[5] COc1ccc(NC(=O)CSc2nnc(C)n2Cc2ccccc2)cc1
  A = 13 | B = 2 | C = 18 | D = -1 | E = . | F = 4
[6] CC(=O)Nc1cccc(NC(=O)CSc2nccn2Cc2ccco2)c1
  A = 6 | B = -3 | C = -1 | D = 99* | E = -11 | F = 1
[7] COc1ccc(Cn2ccnc2SCC(=O)Nc2cccc(NC(C)=O)c2)cc1
  A = -4 | B = -1 | C = 4 | D = 98* | E = . | F = -1
[8] COc1ccc(Cn2c(CO)cnc2SCC(=O)Nc2cccc(NC(C)=O)c2)cc1
  A = -6 | B = 1 | C = 30 | D = 99* | E = -2 | F = 2
[9] C[C@@H]1CN([C@H](C)CO)C(=O)Cc2cc(NC(=O)Nc3ccc(F)cc3)ccc2O[C@@H]1CN(C)Cc1ccc(C(=O)O)cc1
  A = . | B = . | C = . | D = . | E = 5 | F = .
[10] COc1cccc(Nc2nc(N)nc(CCl)n2)c1
  A = 2 | B = 2 | C = 32 | D = 9 | E = -30 | F = 3
[11] CCOc1ccc(Nc2nc(N)nc(CCl)n2)cc1
  A = 11 | B = 12* | C = 8 | D = 10 | E = -38 | F = -1
[12] Nc1nc(CCl)nc(Nc2ccccc2)n1
  A = 3 | B = -3 | C = 5 | D = 87* | E = . | F = -6
[13] CC(C)NC(=O)N(C)C[C@H]1Oc2ccc(NC(=O)Nc3ccc(C(F)(F)F)cc3)cc2C(=O)N([C@H](C)CO)C[C@H]1C
  A = . | B = . | C = . | D = . | E = -6 | F = .
[14] O=C(Nc1nc2c(Br)cccc2s1)C1CC1
  A = 7 | B = 1 | C = 11 | D = 9 | E = -6 | F = 46*
[15] O=C(Nc1nc2c(Cl)cccc2s1)C1CC1
  A = -2 | B = -3 | C = 13 | D = 0 | E = -22 | F = -1
[16] Oc1c(Br)cc(Br)cc1CNn1cnnc1
  A = 9 | B = 0 | C = 9 | D = 99* | E = -5 | F = 0
[17] Oc1c(Br)cc(Br)cc1CNc1cccc2cccnc12
  A = 19 | B = 1 | C = 8 | D = -104 | E = 2 | F = -2
[18] Oc1c(Br)cc(Br)cc1CNc1ccccn1
  A = 10 | B = 0 | C = -4 | D = 98* | E = -3 | F = -7
[19] Oc1ccccc1CNc1ccc(Br)cn1
  A = -4 | B = 49* | C = 6 | D = 43 | E = -6 | F = -8
[20] O=C(NCC[C@@H]1CC[C@@H](NS(=O)(=O)c2ccc(F)cc2)[C@@H](CO)O1)Nc1ccc(F)cc1
  A = . | B = . | C = . | D = . | E = -11 | F = .
[21] CCNC(=O)/C=C/c1ccccc1[N+](=O)[O-]
  A = 2 | B = -2 | C = 4 | D = -6 | E = . | F = 9
[22] CCC(C)(C)NC(=O)/C=C/c1ccccc1[N+](=O)[O-]
  A = -5 | B = 1 | C = 12 | D = 95* | E = . | F = -6
[23] CCCCOC(=O)n1c(=S)oc2cc(Cl)ccc21
  A = 12 | B = 0 | C = 3 | D = 53 | E = -1 | F = 0
[24] COC(=O)n1c(=S)oc2cc(Cl)ccc21
  A = . | B = . | C = -3 | D = 96* | E = . | F = 3
[25] Cc1csc(SCC(=O)Nc2nc3ccccc3s2)n1
  A = -6 | B = -1 | C = 11 | D = -5 | E = -22 | F = 14
[26] CCC1C(=O)N=C(SCC(=O)Nc2ccc(Br)cn2)NC1=O (stereo not given)
  A = 6 | B = -3 | C = -12 | D = 99* | E = . | F = -5
[27] Cn1cc(SCC(=O)Nc2nc3ccccc3s2)c2ccccc21
  A = -3 | B = 0 | C = 41 | D = 98* | E = -10 | F = 11
[28] CCOC(=O)c1ccc(NC(=O)CSC2=NC(=O)C(CC)C(=O)N2)cc1 (stereo not given)
  A = -3 | B = 2 | C = 8 | D = 99* | E = -13 | F = -6
[29] Cn1c(SCC(=O)Nc2ccc(Br)cn2)nnc1C1CC1
  A = 7 | B = 0 | C = 15 | D = -9 | E = -11 | F = -2
[30] CCOC(=O)CC(=O)Nc1nc2ccccc2s1
  A = 0 | B = -2 | C = -17 | D = . | E = -8 | F = 2
[31] CCC1C(=O)N=C(SCC(=O)Nc2nc3ccccc3s2)NC1=O (stereo not given)
  A = -5 | B = 0 | C = 15 | D = 99* | E = -13 | F = 5
[32] C[C@@H]1CN([C@H](C)CO)C(=O)c2cc(NS(=O)(=O)c3cn(C)cn3)ccc2O[C@H]1CN(C)Cc1ccc2c(c1)OCO2
  A = . | B = . | C = . | D = . | E = -14 | F = .
[33] C[C@@H]1CCCCO[C@@H](CN(C)S(=O)(=O)c2cccs2)[C@H](C)CN([C@@H](C)CO)C(=O)c2cc(NS(=O)(=O)c3ccc(F)cc3)ccc2O1
  A = . | B = . | C = . | D = . | E = -8 | F = .
[34] CCC1C(=O)N=C(SCC(=O)Nc2cccc3ccccc23)NC1=O (stereo not given)
  A = 17 | B = 1 | C = 18 | D = 99* | E = 5 | F = 5
[35] CC(=O)N[C@H]1CC[C@H](CC(=O)NCc2ccc(Cl)cc2)O[C@@H]1CO
  A = . | B = . | C = . | D = . | E = -9 | F = .
[36] O=C(CC12CC3CC(CC(C3)C1)C2)N1CCCC1
  A = 4 | B = 0 | C = 37* | D = -5 | E = 12 | F = 2
[37] CNC(=O)Nc1cccc2cccnc12
  A = 15 | B = 0 | C = 44* | D = -7 | E = . | F = 5
[38] C/C(=N\Nc1cccc2cccnc12)c1ccccn1
  A = -3 | B = 0 | C = -2 | D = 90* | E = . | F = -1
[39] O=C(O)CCC(=O)Nc1cccc2cccnc12
  A = 26 | B = -1 | C = -5 | D = -27 | E = . | F = 4
[40] C/C(=N\Nc1ncc(Cl)cc1Cl)c1ccccn1
  A = 5 | B = -3 | C = 45* | D = . | E = . | F = .
[41] CO[C@H]1CN(C)C(=O)c2ccc(NC(C)=O)cc2OC[C@@H](C)N(S(=O)(=O)c2cn(C)cn2)C[C@@H]1C
  A = . | B = . | C = . | D = . | E = 11 | F = .
[42] CCOc1ccccc1-c1n[nH]c(=S)o1
  A = 12 | B = 0 | C = 1 | D = 37 | E = -21 | F = -10
[43] COc1ccc(-c2n[nH]c(=S)o2)c(OC)c1
  A = 10 | B = -2 | C = -8 | D = 90* | E = -5 | F = -22
[44] CCCC1(C(=O)O)NC(c2ccccc2O)C2C(=O)N(Cc3ccccc3)C(=O)C21 (stereo not given)
  A = -4 | B = 0 | C = 11 | D = -20 | E = -11 | F = -4
[45] CCC1(C(=O)O)NC(c2cc(OC)ccc2O)C2C(=O)N(Cc3ccccc3)C(=O)C21 (stereo not given)
  A = 6 | B = 0 | C = -15 | D = 87* | E = -11 | F = -1

Entries of single compounds as entered above:
`CCC1C(=O)N=C(SCC(=O)Nc2cccc3ccccc23)NC1=O` (stereo not given) is listed as MC4R antagonist: 17; MC4R ag barr: 1; NALP1 yeast inh: 18; ALR H2O2 inh: 99*; Yeast UUG start: 5; HDAC3 inhib: 5
`COc1ccc(Cn2c(CO)cnc2SCC(=O)Nc2cccc(NC(C)=O)c2)cc1` is listed as MC4R antagonist: -6; MC4R ag barr: 1; NALP1 yeast inh: 30; ALR H2O2 inh: 99*; Yeast UUG start: -2; HDAC3 inhib: 2

(further entries)
Short forms – A = MC4R antagonist; B = MC4R ag barr; C = NALP1 yeast inh; D = ALR H2O2 inh; E = Yeast UUG start; F = HDAC3 inhib
[46] COc1ccc(-c2ccc([C@@H]3[C@@H](CO)N4CCCCN(C(=O)c5ccc6c(c5)OCO6)C[C@@H]34)cc2)cc1
  A = . | B = . | C = . | D = . | E = 20 | F = .
[47] CN1/C(=C/C=C(C#N)C#N)C=Cc2ccccc21
  A = 3 | B = -1 | C = 10 | D = 3 | E = . | F = 2
[48] CCCCCCN1C=CC=C/C1=C/C=C(C#N)C#N
  A = 2 | B = -1 | C = 30 | D = 87* | E = . | F = 17
[49] CCCCCN1C=CC=C/C1=C\C=C(C#N)C#N
  A = -7 | B = -2 | C = 31 | D = 99* | E = -46 | F = -2
[50] C[C@@H]1CN([C@@H](C)CO)S(=O)(=O)c2ccc(/C=C/c3ccccc3)cc2O[C@H]1CN(C)C(=O)c1ccncc1
  A = . | B = . | C = . | D = . | E = -9 | F = .
[51] Cc1noc(C)c1NC(=O)N(C)C[C@H]1Oc2ccc(NC(=O)Cc3cn(C)c4ccccc34)cc2C(=O)N([C@H](C)CO)C[C@@H]1C
  A = . | B = . | C = . | D = . | E = 10 | F = .
[52] COc1ccc(-c2cn[nH]c2C)cc1
  A = -5 | B = -1 | C = 23 | D = -23 | E = -14 | F = 4
[53] COc1ccc(-c2nc(N)n[nH]2)cc1OC
  A = 8 | B = -2 | C = 5 | D = 3 | E = -33 | F = -5
